The values below are quoted from earlier work in patent US20020077465A1, “ADAM polynucleotides, polypeptides, and antibodies” (priority 2000, published 2002).

The chains behind the UniProt entries cited, without tags or fusion partners. Residues count along the entry.
UniProt P08254, 100-477, species assumed: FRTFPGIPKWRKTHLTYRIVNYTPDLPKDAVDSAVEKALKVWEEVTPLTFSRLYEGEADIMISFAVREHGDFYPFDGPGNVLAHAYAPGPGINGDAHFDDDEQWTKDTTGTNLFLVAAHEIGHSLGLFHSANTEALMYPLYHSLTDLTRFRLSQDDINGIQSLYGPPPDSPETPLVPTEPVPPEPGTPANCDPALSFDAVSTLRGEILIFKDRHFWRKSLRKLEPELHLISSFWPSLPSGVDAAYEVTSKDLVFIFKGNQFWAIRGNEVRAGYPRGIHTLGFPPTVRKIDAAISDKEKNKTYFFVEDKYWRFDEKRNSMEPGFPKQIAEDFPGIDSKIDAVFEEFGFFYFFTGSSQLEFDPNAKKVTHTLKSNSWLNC

For the data set, the target named is MMP-3 (Homo sapiens, UniProt P08254). The note with it: read-out: Ki against MMP-3.

As to `COc1ccc(S(=O)(=O)N(CC(=O)NO)CC(C)C)cc1` [MMP-3 inhibitor II], the Ki (as a rule, the dissociation constant of the complex between target and ligand, obtained from inhibition or displacement) is 130 nM.
